{"source": "paper PMC2761767", "about": "(Journal of medicinal chemistry, 2009)", "experiment": "Solubility", "assay_type": "physicochemical"}
{"substance": "2-(3-Benzo[b]furyl)-6,7-methylenedioxyquinolin-4-one [Compound 37]", "values": [{"measurement": "Solubility", "result": "reasonable solubility"}]}
